# Apparent affinities of Ab-14 variants for a coronavirus HR2 peptide

The target is the same throughout: PDVDLGDISGINAS, from the HR2 region of SARS-CoV-2 spike.

Each scFv is VH, three GGGGS repeats, VL, as in the parent Ab-14, and differs from it in the CDRs of the light chain only.
VH: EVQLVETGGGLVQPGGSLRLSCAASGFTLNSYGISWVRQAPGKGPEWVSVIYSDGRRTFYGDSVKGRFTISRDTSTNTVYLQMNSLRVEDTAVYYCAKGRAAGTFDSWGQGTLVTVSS
VL: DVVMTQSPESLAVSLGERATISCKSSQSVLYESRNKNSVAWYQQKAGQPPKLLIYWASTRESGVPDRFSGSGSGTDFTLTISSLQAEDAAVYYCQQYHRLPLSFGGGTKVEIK

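The starting antibody came from a phage panning campaign against this peptide. These sequences belong to a second round, designed from the earlier measurements on random variants of the parent. Several design methods are mixed in this list. Affinity was read by AlphaSeq, a pooled yeast mating assay with surface-displayed partners. Mating (16 h, 30 °C) was followed by selection of diploids and sequencing of their barcodes. Scores were corrected for input abundance and mapped to Kd with protein pairs of known affinity run in the same pool. Mating was done six times.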

Sequences are complete VL domains. Affinities are written as log10 Kd with Kd in nM; a lower number is a better binder. The mean shown is taken over the replicates in which the pair was detected. Where no diploid with the target was found in any replicate, the entry reads "not detected": below detection, most likely a poor binder, though not proof of it. The list is sorted by this average, lowest first, undetected variants last. Empty control strains, which show no peptide, gave a signal in 4% of pairings with all light chain designs; the median was 2.64 and 95% of these signals were weaker than 1.59. No background was subtracted. For each scFv, signals with the empty controls are counted beside the result. The authors averaged sequences with at least three values out of six and counted those with two or fewer as poor binders. A sequence measured in both rounds can read differently, since the two assays cover different ranges. The parent sequence was in this pool as ten entries: three were never detected, three once, and four in most replicates, with averages from 0.34 to 2.37.

log10 Kd (nM), mean | seen in | control signals | VL
-0.35 | 6/6 | 0/18 | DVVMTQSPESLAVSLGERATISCKLSGSELYESRNKNSVAWYQQKAGQPPKLLIYNASTRLSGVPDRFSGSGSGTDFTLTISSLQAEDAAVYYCQQYHRLPLSFGGGTKVEIK
-0.14 | 6/6 | 2/18 | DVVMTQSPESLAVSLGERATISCKLSQSVLMESRNSNSVAWYQQKAGQPPKLLIYDASTRESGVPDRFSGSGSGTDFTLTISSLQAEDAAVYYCQQYHRLPLSFGGGTKVEIK
0.02 | 6/6 | 0/18 | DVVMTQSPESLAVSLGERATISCKSSGSVEMLSRNVNSVAWYQQKAGQPPKLLIYEATTRESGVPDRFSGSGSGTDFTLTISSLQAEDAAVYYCQQYHRLPLSFGGGTKVEIK
0.04 | 6/6 | 0/18 | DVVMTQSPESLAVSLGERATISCKVSQSCLYESGTKNSVAWYQQKAGQPPKLLIYNASSRESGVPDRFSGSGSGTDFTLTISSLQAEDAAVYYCQQYHRLPLSFGGGTKVEIK
0.12 | 6/6 | 0/18 | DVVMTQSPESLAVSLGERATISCHLSQSVDLESVHKNSIAWYQQKAGQPPKLLIYDLMTRTSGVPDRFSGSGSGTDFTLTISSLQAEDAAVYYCQQYHRLPLSFGGGTKVEIK
0.15 | 6/6 | 1/18 | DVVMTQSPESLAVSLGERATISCHVGQTRQADISNKKSIAWYQQKAGQPPKLLIYAGETLIDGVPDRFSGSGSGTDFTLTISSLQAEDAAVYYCQQYGRLPFSFGGGTKVEIK
0.18 | 6/6 | 1/18 | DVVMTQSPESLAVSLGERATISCKSSISYLEESRNKNSVAWYQQKAGQPPKLLIYEASTRERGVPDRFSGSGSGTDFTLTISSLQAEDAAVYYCQQYHRLPLSFGGGTKVEIK
0.29 | 6/6 | 0/18 | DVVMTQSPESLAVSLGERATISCKLSSSHLYGDRMKNSVAWYQQKAGQPPKLLIYQASQRESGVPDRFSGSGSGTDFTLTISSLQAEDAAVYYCQQYHRLPLSFGGGTKVEIK
0.53 | 6/6 | 0/18 | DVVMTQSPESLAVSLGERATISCKLASVTGTEKVRGNNVAWYQQKAGQPPKLLIYEMETRERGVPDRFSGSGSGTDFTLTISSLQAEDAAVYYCQQYNRLPLSFGGGTKVEIK
0.53 | 6/6 | 0/18 | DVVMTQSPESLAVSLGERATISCKLGQMTAIESRNLNSVAWYQQKAGQPPKLLIYQMDTRESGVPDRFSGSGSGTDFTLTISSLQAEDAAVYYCQQYHHLPLSFGGGTKVEIK
0.85 | 6/6 | 2/18 | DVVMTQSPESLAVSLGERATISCKSSQQELYESQNKNSVAWYQQKAGQPPKLLIYKASTRELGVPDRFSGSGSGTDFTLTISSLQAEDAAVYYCQQYHRLPLSFGGGTKVEIK
1.28 | 6/6 | 2/18 | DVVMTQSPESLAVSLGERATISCKISQMVRVGATHSNSIAWYQQKAGQPPKLLIYEEATRAKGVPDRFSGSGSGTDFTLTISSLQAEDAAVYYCQQYHRLPLAFGGGTKVEIK
2.04 | 6/6 | 0/18 | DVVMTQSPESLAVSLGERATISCNLSMSAATFVNESSSIAWYQQKAGQPPKLLIYNAEQTYDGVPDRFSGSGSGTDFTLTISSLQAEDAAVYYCQQYHELPLVFGGGTKVEIK
2.31 | 3/6 | 0/18 | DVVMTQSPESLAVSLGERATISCKVSEFMRGLMKMQDSIAWYQQKAGQPPKLLIYDNETRPNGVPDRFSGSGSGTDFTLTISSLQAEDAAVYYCQQYDRLPLSFGGGTKVEIK
not detected | 0/6 | 0/18 | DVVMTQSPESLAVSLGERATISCNMEVSLVDAKNRDSSIAWYQQKAGQPPKLLIYDEELHTIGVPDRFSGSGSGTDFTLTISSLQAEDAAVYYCQQYNRLPFSFGGGTKVEIK
not detected | 0/6 | 0/18 | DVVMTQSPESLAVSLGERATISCRIQMTMLEGRMAWSNIAWYQQKAGQPPKLLIYDNEESYRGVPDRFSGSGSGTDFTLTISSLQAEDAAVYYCQQYVRLPLYFGGGTKVEIK
not detected | 0/6 | 0/18 | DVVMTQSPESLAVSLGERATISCKSSQSVLYESRNKNNVAWYQQKAGQPPKLLIYWASTRESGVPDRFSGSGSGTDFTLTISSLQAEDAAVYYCQQYHIHPLSFGGGTKVEIK

From the list, the first 2 with no signal in any replicate:

VL,"log10 Kd (nM), mean",seen in,control signals
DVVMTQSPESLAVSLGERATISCNMEVSLVDAKNRDSSIAWYQQKAGQPPKLLIYDEELHTIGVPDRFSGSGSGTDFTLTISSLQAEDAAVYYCQQYNRLPFSFGGGTKVEIK,not detected,0/6,0/18
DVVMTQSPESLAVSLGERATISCRIQMTMLEGRMAWSNIAWYQQKAGQPPKLLIYDNEESYRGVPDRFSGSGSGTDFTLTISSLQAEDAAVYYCQQYVRLPLYFGGGTKVEIK,not detected,0/6,0/18

Values reported by Li et al. 2023, doi:10.1038/s41467-023-39022-2 (FLAb copy).